In the library only some 1.7% were active in any assay of this set; here they are far more common.
CAL PDZ FP-1 = blocks peptide binding to the human CAL PDZ domain; Q9HD26; purified CAL PDZ, TMR-peptide fluorescence polarization, 1 h; inhibition, % at 24.9 µM; actives 0.92% (n = 300,000);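 active means mean inhibition of at least 30% with at least half of replicates also reaching 30%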;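 further: 0% = DMSO neutral control and 100% = excess unlabeled competitor peptide PRC23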
CDK5 inh = inhibitors of human CDK5/p35 kinase. Recombinant CDK5/p35, ADP-Glo luminescence, 60 min. actives 0.01% (n = 330,000). inhibition, % at 10 µM;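 active means highest replicate inhibition of at least 50% and at least 75% of replicates reaching 50%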;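 further: plate controls were DMSO neutral control for no effect and GW8510 at 10 µM for full effect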
DYRK1A inh = Dyrk1A (rat) kinase inhibition; Q63470; ADP-Glo luminescence, NFATc1 peptide; inhibition, % at 12.5 µM; actives 0.43% (n = 310,000); in the data active means inhibition above about 50%;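 further: plate controls were vehicle with enzyme for no effect and no enzyme for full effect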
CAL PDZ FP-2 = inhibitors of human CAL PDZ peptide binding; actives 0.02% (n = 330,000); Q9HD26; inhibition, % at 20 µM; purified CAL PDZ, TMR-peptide fluorescence polarization, 1 h;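 active means highest replicate inhibition of at least 40%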;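 further: plate controls were DMSO neutral control wells for no effect and unlabeled competitor peptide control wells for full effect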
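System: purified tagged CAL PDZ domain construct (CerCALP). Schedule: 1 h incubation at room temperature before polarization reading. Medium: 25 mM sodium phosphate pH 7.4, 150 mM NaCl, TCEP, IgG, Thesit. Read-out: percent inhibition from loss of millipolarization. Measured by: FP readout, S and P plane fluorescence. Probe or stimulus: fluorescent TMR peptide probe.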
dFosB activator = enhances mouse delta FosB homodimer DNA binding. activation, % at 25 µM. AID 493131. P13346. actives 0.99% (n = 340,000). purified delta FosB, TAMRA-CDK5 oligo fluorescence polarization; percent of positive-control signal above neutral wells;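 active means mean activation above about 17%, with every replicate also reaching it, limit read from the data, passing the limit was not always enough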
UUG fidelity = alters start codon recognition fidelity in yeast; S. cerevisiae UUG-firefly luciferase reporter, luminescence/redox ratio; activity score, % at 18.7 µM; actives 0.13% (n = 350,000); AID 602363;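 active = replicate mean at a twofold rise or more, about +100% in these data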;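 also: firefly luciferase made from a UUG start codon reports start codon fidelity; reporter light over untreated wells divided by growth signal over untreated wells; some hits fall short of that in this replicate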
* marks the source's active call; other numbers are inactive results; nt = no result given.

SMILES	CAL PDZ FP-1	CDK5 inh	DYRK1A inh	CAL PDZ FP-2	dFosB activator	UUG fidelity
Cc1c(Br)ccc(NC(=O)CCN2C(=O)C3C4CCC(C4)C3C2=O)c1C (configuration not stated)	32*	2	nt	-1	-1	-13
CN(C)C(=O)c1cccc(-c2ccc3c(c2)[C@@H]2[C@@H](CCN2C(=O)C2CCCCC2)[C@@H](CO)N3)c1	nt	nt	nt	nt	nt	-5
NC(N)=NN=C1c2ccccc2-c2ccccc21	-6	0	8	nt	-20	-17
CCCOc1ccc2c(c1)C(=NN=C(N)N)c1cc(OCCC)ccc1-2	1	2	4	nt	35*	-3
CCN(CC)CCOc1ccc2c(c1)C(=NO)c1cc(OCCN(CC)CC)ccc1-2	-7	1	nt	-1	56*	-6
COc1ccc(NC(=O)c2cc(F)c(F)cc2Cl)cc1Cl	-8	1	12	-4	-3	-9
O=C(Nc1ccc2[nH]c(=O)[nH]c2c1)c1cc(F)c(F)cc1Cl	55*	0	2	0	4	-7
CCCNC(=O)N1C[C@H](O)COC[C@@H]2O[C@H](CC(=O)N3CCOCC3)CC[C@H]21	nt	nt	nt	nt	nt	-11
O=C(c1ccc2c(c1)OCO2)C1CCCN(Cc2cc(F)ccc2-n2cccn2)C1 (configuration not stated)	57*	-1	3	-1	-6	nt
Cc1ccc(-n2cccn2)c(CN2CCCC(C(=O)c3ccc4c(c3)OCO4)C2)c1 (configuration not stated)	-1	0	1	-2	-1	nt
O=C(CN1CCOCC1)NCC[C@H]1CC[C@@H](NC(=O)Nc2ccc(C(F)(F)F)cc2)[C@@H](CO)O1	nt	nt	nt	nt	nt	-3
COc1cc(/C=C2/NC(=O)N(CC(=O)Nc3ccc(C)cc3)C2=O)ccc1Oc1ccc([N+](=O)[O-])cn1	-5	-1	2	0	18*	nt
COc1ccc(CN2CCNC(=O)C2CC(=O)N(C)CCC2CCOCC2)cc1OC (configuration not stated)	93*	2	-1	0	-7	-5
CSc1ccccc1OCc1cc(C(=O)N(C)Cc2nonc2C)no1	36*	-2	4	0	-13	-16
Cc1noc(C)c1NC(=O)Nc1ccc2c(c1)C(=O)N([C@@H](C)CO)C[C@@H](C)[C@@H](CN(C)Cc1ccc(C(F)(F)F)cc1)OCCCC[C@H](C)O2	nt	nt	nt	nt	nt	-8
O=C(C[C@@H]1CC[C@H](NC(=O)CCN2CCCCC2)[C@@H](CO)O1)Nc1ccc(-c2ccccc2)cc1	nt	nt	nt	nt	nt	5
Cc1noc(C)c1COc1cccc(C(=O)OC(C)C#N)c1 (configuration not stated)	73*	-2	0	-1	-3	nt
Cc1nc(N)nc(N)c1CCCc1ccc(Cl)c(Cl)c1	nt	-4	nt	-1	27*	-18
Cc1nc(N)nc(N)c1-c1ccc(Cl)c(Cl)c1	-1	-1	0	-2	-6	nt
C[C@@H]1CCCCO[C@H](CN(C)Cc2ccccc2)[C@@H](C)CN([C@@H](C)CO)C(=O)c2cc(NC(=O)NC3CCCCC3)ccc2O1	nt	nt	nt	nt	nt	15
CCc1nnc(NC(=O)c2cc(-c3ccc(C)o3)nc3ccccc23)s1	1	0	-1	-1	-16	-18
CCc1nnc(NC(=O)c2cc(C)nc3ccccc23)s1	65*	1	8	-1	-1	-3
COc1cc(NC(=S)Nc2ccccn2)cc(OC)c1	44*	2	7	-1	-2	nt
COc1cc(NC(=S)Nc2ccccn2)cc(OC)c1OC	0	-1	7	-1	-5	nt
COc1ccc(NC(=O)N(C)C[C@@H]2OCCCC[C@H](C)Oc3ccc(NC(=O)CCC(F)(F)F)cc3C(=O)N([C@H](C)CO)C[C@H]2C)cc1	nt	nt	nt	nt	nt	25
O=C(O)CSC(C(=O)Nc1ccc(Br)cc1)c1ccc(Cl)cc1 (configuration not stated)	135*	0	0	-1	-1	nt
COc1ccc(S(=O)(=O)N(C)C[C@H]2Oc3ccc(NC(=O)Nc4c(C)noc4C)cc3CC(=O)N([C@H](C)CO)C[C@H]2C)cc1	nt	nt	nt	nt	nt	-8
Cc1cccc(Nc2nc(N)c([N+](=O)[O-])c(N3CCCC(C)C3)n2)c1 (configuration not stated)	-20	10	28	0	45*	nt

Four compounds out of the list, sorted by formula weight, falling:
SMILES	CAL PDZ FP-1	CDK5 inh	DYRK1A inh	CAL PDZ FP-2	dFosB activator	UUG fidelity
C[C@@H]1CCCCO[C@H](CN(C)Cc2ccccc2)[C@@H](C)CN([C@@H](C)CO)C(=O)c2cc(NC(=O)NC3CCCCC3)ccc2O1	nt	nt	nt	nt	nt	15
CCN(CC)CCOc1ccc2c(c1)C(=NO)c1cc(OCCN(CC)CC)ccc1-2	-7	1	nt	-1	56*	-6
CCCNC(=O)N1C[C@H](O)COC[C@@H]2O[C@H](CC(=O)N3CCOCC3)CC[C@H]21	nt	nt	nt	nt	nt	-11
CCCOc1ccc2c(c1)C(=NN=C(N)N)c1cc(OCCC)ccc1-2	1	2	4	nt	35*	-3
